Measurements published in ChEMBL document CHEMBL1132600, “Substrate specificity and stereoselectivity of rat brain microsomal anandamide amidohydrolase” (J Med Chem, 1999).

Amino acid sequences for entries named in this document (tags omitted).
UniProt P97612, whole entry: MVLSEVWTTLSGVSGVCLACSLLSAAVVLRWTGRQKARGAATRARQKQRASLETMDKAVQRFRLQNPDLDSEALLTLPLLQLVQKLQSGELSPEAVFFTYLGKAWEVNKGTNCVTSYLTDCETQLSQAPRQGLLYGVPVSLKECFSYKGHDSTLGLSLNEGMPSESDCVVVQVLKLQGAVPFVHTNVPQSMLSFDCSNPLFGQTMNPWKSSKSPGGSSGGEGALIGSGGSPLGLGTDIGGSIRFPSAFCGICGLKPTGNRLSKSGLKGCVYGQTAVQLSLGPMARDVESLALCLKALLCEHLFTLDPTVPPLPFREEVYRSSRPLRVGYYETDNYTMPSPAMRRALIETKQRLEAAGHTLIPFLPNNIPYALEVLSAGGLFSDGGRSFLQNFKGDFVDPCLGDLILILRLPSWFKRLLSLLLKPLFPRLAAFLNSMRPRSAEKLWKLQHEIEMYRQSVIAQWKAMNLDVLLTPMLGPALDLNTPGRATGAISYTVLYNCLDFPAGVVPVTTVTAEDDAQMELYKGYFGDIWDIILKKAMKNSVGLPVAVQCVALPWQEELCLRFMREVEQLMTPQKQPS

target: Fatty-acid amide hydrolase 1 (Rattus norvegicus) (UniProt P97612); test: Tested for hydrolysis by rat brain microsomal anandamide amidohydrolase (AAH).
Outline: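 Substrate at 100 μM (final) with 150 μg rat brain microsomal protein in 50 mM Tris·HCl, 1 mM EDTA, 0.1% BSA, pH 7.4, 37 °C, 15 min with shaking. Stopped with acetonitrile. Products quantified by RP-HPLC: arachidonic acid at 204 nm, or ethanolamine-type amine by OPA precolumn derivatization at 230 nm. Substrate-free blank subtracted. Four experiments in duplicate.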

SMILES	Relative rate of hydrolysis [%]
CCCCC/C=C\C/C=C\C/C=C\C/C=C\CCCC(=O)N[C@H](C)CO	2.4
CCCCC/C=C\C/C=C\C/C=C\C/C=C\CCCC(=O)N[C@@H](C)CO	23
CCCCC/C=C\C/C=C\C/C=C\C/C=C\CCCC(=O)N(CCO)CCO	0
CCCCC/C=C\C/C=C\CCCCCCCC(=O)NCCO	75
